Literature values, collected in patent US20070197573A1, “Compositions and methods in the treatment of bone metabolic disorders” (priority 2005, published 2007).

By UniProt entry, the sequences of proteins in these tests, tags left out.
UniProt P35372, whole entry, species assumed: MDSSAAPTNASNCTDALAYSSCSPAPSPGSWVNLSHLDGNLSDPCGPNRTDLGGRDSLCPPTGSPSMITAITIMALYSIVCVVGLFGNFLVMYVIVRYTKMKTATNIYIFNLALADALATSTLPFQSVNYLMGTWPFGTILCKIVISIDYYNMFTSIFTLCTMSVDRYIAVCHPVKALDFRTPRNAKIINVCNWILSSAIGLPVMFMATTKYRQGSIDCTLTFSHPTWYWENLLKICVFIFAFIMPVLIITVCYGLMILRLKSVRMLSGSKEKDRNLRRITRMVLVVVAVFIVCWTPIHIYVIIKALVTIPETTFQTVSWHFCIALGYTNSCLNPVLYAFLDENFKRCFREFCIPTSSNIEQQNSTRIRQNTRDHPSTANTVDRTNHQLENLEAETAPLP

Molecular target: μ opioid receptor (Homo sapiens, UniProt P35372)
Settings: cited from earlier work

CTAP
type of activity at receptors exhibiting spontaneous activity: neutral antagonist
